## Curated experimental data: properties

Data: OPERA 2.9 data sets, kmansouri/OPERA on GitHub.

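The numbers are reported measurements, compiled and curated for the OPERA QSAR suite. The files give a single number for a compound and property, which may rest on several reports. Method and conditions are not stated for these values. The measured form (salt, isomer or mixture) is not always the one drawn. Some upstream entries may be estimates or bounds without being marked so.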

Melting points are in °C.
Boiling points are in °C, nominally at 760 mmHg.
The octanol-water partition coefficient is given as log10; larger values mean a more lipophilic compound.
Solubility in water is on a log10 molar scale (set defined at 25 °C).
Vapor pressures (log10 mmHg) refer to near room temperature, 15 to 30 °C; higher is more volatile.
Henry's law constant (air-water partitioning) is log10 of atm·m3/mol, nominally at 25 °C.
fu is the fraction unbound in human plasma, from 0 to 1.
Cells with "n/a" have no entry in this list.

| MP (°C) | BP (°C) | log Kow | log solubility (log10 mol/L) | log vapor pressure (log10 mmHg) | Henry's law constant (log10 atm·m3/mol) | plasma fu | compound | name |
|---|---|---|---|---|---|---|---|---|
| 45.4 | 296 | n/a | n/a | -3.628 | n/a | n/a | Fc1cc(OC(F)(F)c2c(F)cc(Br)cc2F)cc(F)c1F | n/a |
| n/a | n/a | 4.36 | -3.548 | -0.598 | n/a | n/a | CC(=O)CC(C)(C)C1CCCCC1 | 4-Cyclohexyl-4-methyl-pentan-2-one |
| 191.1 | n/a | n/a | n/a | -7.243 | n/a | n/a | CCN(CC)C(=O)c1ccc[n+](CCCS(=O)(=O)[O-])c1 | n/a |
| -14 | n/a | n/a | -7.932 | n/a | n/a | n/a | CCCCCCCCCCCC(=O)OCC(C)C | Isobutyl laurate |
| n/a | 312.9 | n/a | n/a | -5.545 | n/a | n/a | CC1(C)NC(=O)NC1=O | 5,5-Dimethylhydantoin |
| 61 | n/a | 3.5 | -3.5 | -7.763 | n/a | n/a | CC(O)COc1ccc(C(C)(C)c2ccc(OCC(C)O)cc2)cc1 (stereo not drawn) | Bisphenol A bis(2-hydroxypropyl) ether |
| 206.8 | n/a | 0.206 | n/a | n/a | n/a | n/a | CCOc1ccccc1C(=N)N.Cl | 2-Ethoxybenzamidine hydrochloride |
| 163.8 | n/a | 0.009 | n/a | -9.929 | n/a | n/a | Nc1cc(Cl)nc(C(=O)O)c1Cl | 4-Amino-3,6-dichloro-2-pyridinecarboxylic acid |
| n/a | n/a | 3.99 | -2.933 | n/a | n/a | n/a | CCCC(=O)OCCC(C)C | Isopentyl butyrate |
| 130 | n/a | n/a | -8.143 | -7.347 | n/a | n/a | CCCCC(CC)COC(=O)c1ccc(Nc2nc(Nc3ccc(C(=O)OCC(CC)CCCC)cc3)nc(Nc3ccc(C(=O)OCC(CC)CCCC)cc3)n2)cc1 (stereo not drawn) | Ethylhexyl triazone |
| n/a | n/a | 2.02 | -4.986 | n/a | n/a | n/a | O=C(O)c1cc(Nc2ccccc2)c(C(=O)O)cc1Nc1ccccc1 | 2,5-Dianilinoterephthalic acid |
| n/a | n/a | n/a | -7.234 | -5.569 | n/a | n/a | CCCCCC(CCC)COC(=O)OCC(CCC)CCCCC (stereo not drawn) | Bis(2-propylheptyl) carbonate |
| n/a | n/a | 2.4 | -3.511 | -6.727 | n/a | n/a | O=C1CCc2[nH]c3ccccc3c2C1 | 1,2,4,9-Tetrahydro-3H-carbazol-3-one |
| n/a | n/a | n/a | -2.06 | n/a | n/a | 0.04 | CC(=O)c1ccc(S(=O)(=O)NC(=O)NC2CCCCC2)cc1 | Acetohexamide |
| n/a | n/a | 3 | -5.677 | -10.76 | n/a | n/a | CCCCCCC(O)C/C=C\CCCCCCCC(=O)OCC(COC(=O)CCCCCCC/C=C\CC(CCCCCC)OC(=O)/C=C\C(=O)O)OC(=O)CCCCCCC/C=C\CC(O)CCCCCC (stereo partly drawn) | Ricinoleyl monomaleate triglyceride |
| 217 | n/a | n/a | n/a | n/a | n/a | 0.07408 | CN(C)CCC=C1c2ccccc2C=Cc2ccccc21 | Cyclobenzaprine |
| n/a | n/a | 0.9 | -3.296 | n/a | n/a | n/a | CN[C@@H]1CCc2[nH]c3ccc(C(N)=O)cc3c2C1 | Frovatriptan |
| -57 | n/a | n/a | -6.338 | -13.76 | n/a | n/a | CCCCCCCCC(CCCCCC)C(=O)OCC(COC(=O)C(CCCCCC)CCCCCCCC)(COC(=O)C(CCCCCC)CCCCCCCC)COC(=O)C(CCCCCC)CCCCCCCC (stereo not drawn) | n/a |
| n/a | n/a | -0.46 | n/a | -0.437 | n/a | n/a | NC1CCCCC1N (stereo not drawn) | 1,2-Cyclohexanediamine |
| n/a | 269 | n/a | n/a | -4.28 | n/a | n/a | CCCCCCCCCCCCCCCC[Si](Cl)(Cl)Cl | Silane, trichlorohexadecyl- |
| n/a | n/a | -1.453 | -2.842 | n/a | n/a | n/a | Nc1ncnc2c1ncn2[C@@H]1O[C@H](CO)[C@@H](OP(=O)(O)O)[C@H]1O | 3'-Adenylic acid |
| n/a | n/a | 6.44 | -5.323 | -7.227 | n/a | n/a | CCC[C@H]1CC[C@H]([C@H]2CC[C@H](C(=O)O)CC2)CC1 | n/a |
| 214.2 | n/a | 2.3 | -4.603 | -9.639 | n/a | n/a | CCC(C(=O)O)c1ccc(N2C(=O)c3ccccc3C2=O)cc1 (stereo not drawn) | n/a |
| n/a | n/a | n/a | -3.31 | n/a | -5.802 | n/a | CC(C)Nc1nc(=O)nc(NC(C)C)[nH]1 | 1,3,5-Triazin-2(1H)-one, 4,6-bis((1-methylethyl)amino)- |
| n/a | n/a | 4.3 | n/a | -2.179 | n/a | n/a | Clc1ccc(Br)cc1Cl | Benzene, 4-bromo-1,2-dichloro- |
| n/a | n/a | 1.85 | n/a | 0.058 | n/a | n/a | Oc1cc(F)c(F)c(F)c1 | 3,4,5-Trifluorophenol |
| n/a | n/a | n/a | -2.433 | -1.727 | n/a | n/a | CC1CC(C)(c2ccccc2)CO1 (stereo not drawn) | Rhubafuran |
| 85.9 | n/a | 5.12 | -6.737 | n/a | n/a | n/a | CCCCCCCC[C@@H](O)CCCCCCCCC(=O)O | (10R)-10-Hydroxystearic acid |
| n/a | n/a | -4.7 | n/a | -8.988 | n/a | n/a | COc1ccc(S(=O)(=O)CCOS(=O)(=O)[O-])cc1/N=N/c1c(S(=O)(=O)[O-])cc2cc(S(=O)(=O)[O-])c(/N=N/c3ccc(S(=O)(=O)CCOS(=O)(=O)[O-])cc3)c(N)c2c1O.[Na+].[Na+].[Na+].[Na+] | C.I. Reactive Blue 250 |
| 158 | n/a | 4.23 | n/a | n/a | n/a | n/a | CCN(CC)c1ccc(N=Nc2cc(Br)ccn2)c(O)c1 | 2-(5-Bromo-2-pyridylazo)-5-diethylaminophenol |
| -78.5 | 257 | 3.8 | -3.558 | -4.116 | n/a | n/a | CC(C)CC(C)c1ccccc1N (stereo not drawn) | 2-(1,3-Dimethylbutyl)aniline |
| n/a | n/a | 2 | n/a | 0.394 | n/a | n/a | CC1CCCC(C)C1N (stereo not drawn) | 2,6-Dimethylcyclohexan-1-amine |

A selection of 2 entries from above:

compound	name	MP (°C)	BP (°C)	log Kow	log solubility (log10 mol/L)	log vapor pressure (log10 mmHg)	Henry's law constant (log10 atm·m3/mol)	plasma fu
CC1(C)NC(=O)NC1=O	5,5-Dimethylhydantoin	n/a	312.9	n/a	n/a	-5.545	n/a	n/a
O=C(O)c1cc(Nc2ccccc2)c(C(=O)O)cc1Nc1ccccc1	2,5-Dianilinoterephthalic acid	n/a	n/a	2.02	-4.986	n/a	n/a	n/a